The structures appear in SMILES notation.

Protein sequences, listed by entry. Tags and fused reporters are not part of them. Residues count along the entry.
UniProt P35563, 24-483 limits assumed: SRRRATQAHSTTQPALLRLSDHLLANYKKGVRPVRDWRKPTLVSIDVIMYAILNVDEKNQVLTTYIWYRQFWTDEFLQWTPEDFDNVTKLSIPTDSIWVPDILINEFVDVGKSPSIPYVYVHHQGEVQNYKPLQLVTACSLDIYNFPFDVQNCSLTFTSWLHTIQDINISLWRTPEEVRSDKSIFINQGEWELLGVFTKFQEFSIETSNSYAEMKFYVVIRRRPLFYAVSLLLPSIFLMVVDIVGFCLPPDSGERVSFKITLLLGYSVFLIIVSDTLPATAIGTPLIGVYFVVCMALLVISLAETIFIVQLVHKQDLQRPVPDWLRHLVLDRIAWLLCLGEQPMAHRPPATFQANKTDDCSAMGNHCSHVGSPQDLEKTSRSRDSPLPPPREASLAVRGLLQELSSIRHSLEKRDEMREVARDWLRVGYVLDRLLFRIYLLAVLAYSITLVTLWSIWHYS

Results on four compounds are retold here after patent US5200415A, “Pyrazolo[1,5-a]pyridine-3-carboxylic acid derivatives and their pharmaceutical use” (Asahi Kasei Kogyo Kabushiki Kaisha, priority 1990, dated 1993).

In this test the target is 5-HT3 receptor (Rattus norvegicus, UniProt P35563). In words: 5-HT3 receptor binding experiment (3H-quipazine binding assay, rat cerebral cortical membrane fraction). The settings on record: read-out: IC50 value; concentration corresponding to 50% inhibition of 3H-quipazine binding.

As to `Cc1nn2c(C)cccc2c1C(=O)OC1CN2CCC1CC2` (stereo not shown), the 50% inhibitory concentration (IC50) (in general, the concentration that gives 50% inhibition) worked out at 0.14 nM.
As for `Cc1cccc2c(C(=O)OC3CN4CCC3CC4)cnn12` (stereo not shown), the IC50 is 0.21 nM.
Then `Cc1cccc2c(C(=O)O[C@H]3CN4CCC3CC4)cnn12`, with 1.3 nM; and `Cc1cccc2c(C(=O)O[C@@H]3CN4CCC3CC4)cnn12`, with 0.11 nM.
